Source: BindingDB's records for doi:10.1101/2020.07.17.207019 (National Institutes of Health, 2020)

Biological target: Replicase polyprotein 1ab (Severe acute respiratory syndrome coronavirus 2, UniProt P0DTD1)

Structure (SMILES): CCCC(C=O)NC(=O)C(CC(C)C)NC(=O)C(CC(C)C)NC(=O)OCc1ccccc1 (stereo unspecified) [MG-115]
- IC50: 12.7 µM
